2 substances from publication PMC5513865 (British Journal of Pharmacology, 2017) can be followed below.

Chains of the proteins cited; added tags and fusions are not shown. Lines headed by an entry give the natural chain unless they say otherwise; changes in a name come on top.
UniProt P41145: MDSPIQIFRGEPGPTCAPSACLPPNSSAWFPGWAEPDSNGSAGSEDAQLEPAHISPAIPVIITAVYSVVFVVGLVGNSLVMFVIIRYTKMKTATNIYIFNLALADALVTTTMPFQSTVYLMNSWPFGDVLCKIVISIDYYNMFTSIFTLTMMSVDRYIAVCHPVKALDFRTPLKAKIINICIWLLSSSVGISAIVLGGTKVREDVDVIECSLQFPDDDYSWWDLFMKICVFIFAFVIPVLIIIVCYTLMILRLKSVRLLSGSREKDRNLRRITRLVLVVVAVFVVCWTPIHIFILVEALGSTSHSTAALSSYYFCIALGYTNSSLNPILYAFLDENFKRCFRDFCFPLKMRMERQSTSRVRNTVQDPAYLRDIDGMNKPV

The subject of data set [1] is μ receptor gene-disrupted 'knockout' (μ-KO) mice. Description: 55°C warm-water tail withdrawal assay in μ-KO mice. It counts as in vivo, mouse. As to conditions: i.c.v., HS665 10 nmol, HS666 30 nmol, U50,488 30 nmol; 20 min.
Data set [2] concerns κ receptor gene-disrupted 'knockout' (κ-KO) mice. Put plainly: 55°C warm-water tail withdrawal assay in κ-KO mice. The note with it: i.c.v., HS665 10 nmol, HS666 30 nmol, U50,488 30 nmol; 20 min.
Data set [3] concerns C57BL/6J wild-type mice. Put plainly: 55°C warm-water tail withdrawal assay after i.c.v. administration. It counts as in vivo, mouse.
Data set [4] concerns C57BL/6J wild-type mice. Description: Place conditioning to determine CPP/CPA. The note with it: i.c.v., HS665 30 nmol, HS666 150 nmol, U50,488 100 nmol, morphine 30 nmol; 2 days conditioning.
Data set [5] deals with T1, human κ receptor (Homo sapiens, UniProt P41145). Description: PathHunter β-arrestin2 recruitment assay, U2OS-hκ receptor-β-arrestin2 cells. It counts as cell-based.
For data set [6], the target named is T1, human κ receptor. Put plainly: [35S]-GTPγS binding assay, CHO-hκ membranes (G protein coupling). It counts as biochemical.
Data set [7] has as its system human κ receptor. Put plainly: Bias analysis G protein vs β-arrestin2 (Black-Leff operational model).
Setting [8] is: relative to maximal effect of U69,593 (100%).

As to “(±)‐trans‐3,4‐dichloro‐N‐methyl‐N‐[2‐(1‐pyrrolidinyl)cyclohexyl]benzeneacetamide”, in data set [1], the “antinociceptive activity in μ-KO mice compared with wild-type” value is given as “did not differ”. Besides, the “antinociceptive activity in κ-KO mice compared with wild-type” value in data set [2] was “significant loss”. Also, the “antinociceptive ED50 and 95% C.I.” value in data set [3] (10 min) is 8.94 (6.55 – 12.0) nmol; in data set [3] (20 min) it was 8.31(5.47 – 12.0) nmol; in data set [3] (30 min), 7.21 (4.02–11.1) nmol; in data set [3] (40 min) it was 9.56 (6.17 – 14.8) nmol; in data set [3] (50 min) it was 11.1 (7.83 –16.3) nmol; in data set [3] (60 min), 14.2 (10.7 – 20.4) nmol. Besides, the “conditioned place preference or aversion” value in data set [4] is given as “significant place aversion”.

Consider “(+)‐(5α,7α,8β)‐(−)N‐methyl‐N‐[7‐(1‐pyrrolidinyl)‐1‐oxaspiro(4,5)dec‐8‐yl]benzeneacetamide”, for which the “log(τ/KA) β-arrestin2” value in data set [5] (operational model) came to 7.17 ± 0.16. Besides, the “Δlog(τ/KA) β-arrestin2” value in data set [5] (relative to U69,593) stood at 0. The “β-arrestin2 recruitment Emax” value in data set [5] (setting [8]) is 100%. Further, the “log(τ/KA) G protein” value in data set [6] (HS665 and U69,593 assessed in parallel) is 7.98 ± 0.11; in data set [6] (HS666 and U69,593 assessed in parallel), 7.59 ± 0.17. In addition, the EC50 in data set [6] (read-out: G protein coupling EC50, CHO-hκ membranes, n = 5) was determined as 18.2 nM. In data set [6] (relative to U69,593), the “Δlog(τ/KA) G protein” value is recorded as 0. Further, in data set [6] (setting [8]), the “G protein coupling Emax” value was 100%. In addition, the “bias factor (G protein over β-arrestin2)” value in data set [7] (compared with U69,593 normalized to 1) is listed as 1. The “ΔΔlog(τ/KA) G protein - β-arrestin2” value in data set [7] (relative to U69,593) is 0.
